# Source: PubChem BioAssay AID743258 (The Scripps Research Institute Molecular Screening Center, 2014)
# Protein sequences, listed by entry. Tags and fused reporters are not part of them.
# UniProt P19174, whole entry: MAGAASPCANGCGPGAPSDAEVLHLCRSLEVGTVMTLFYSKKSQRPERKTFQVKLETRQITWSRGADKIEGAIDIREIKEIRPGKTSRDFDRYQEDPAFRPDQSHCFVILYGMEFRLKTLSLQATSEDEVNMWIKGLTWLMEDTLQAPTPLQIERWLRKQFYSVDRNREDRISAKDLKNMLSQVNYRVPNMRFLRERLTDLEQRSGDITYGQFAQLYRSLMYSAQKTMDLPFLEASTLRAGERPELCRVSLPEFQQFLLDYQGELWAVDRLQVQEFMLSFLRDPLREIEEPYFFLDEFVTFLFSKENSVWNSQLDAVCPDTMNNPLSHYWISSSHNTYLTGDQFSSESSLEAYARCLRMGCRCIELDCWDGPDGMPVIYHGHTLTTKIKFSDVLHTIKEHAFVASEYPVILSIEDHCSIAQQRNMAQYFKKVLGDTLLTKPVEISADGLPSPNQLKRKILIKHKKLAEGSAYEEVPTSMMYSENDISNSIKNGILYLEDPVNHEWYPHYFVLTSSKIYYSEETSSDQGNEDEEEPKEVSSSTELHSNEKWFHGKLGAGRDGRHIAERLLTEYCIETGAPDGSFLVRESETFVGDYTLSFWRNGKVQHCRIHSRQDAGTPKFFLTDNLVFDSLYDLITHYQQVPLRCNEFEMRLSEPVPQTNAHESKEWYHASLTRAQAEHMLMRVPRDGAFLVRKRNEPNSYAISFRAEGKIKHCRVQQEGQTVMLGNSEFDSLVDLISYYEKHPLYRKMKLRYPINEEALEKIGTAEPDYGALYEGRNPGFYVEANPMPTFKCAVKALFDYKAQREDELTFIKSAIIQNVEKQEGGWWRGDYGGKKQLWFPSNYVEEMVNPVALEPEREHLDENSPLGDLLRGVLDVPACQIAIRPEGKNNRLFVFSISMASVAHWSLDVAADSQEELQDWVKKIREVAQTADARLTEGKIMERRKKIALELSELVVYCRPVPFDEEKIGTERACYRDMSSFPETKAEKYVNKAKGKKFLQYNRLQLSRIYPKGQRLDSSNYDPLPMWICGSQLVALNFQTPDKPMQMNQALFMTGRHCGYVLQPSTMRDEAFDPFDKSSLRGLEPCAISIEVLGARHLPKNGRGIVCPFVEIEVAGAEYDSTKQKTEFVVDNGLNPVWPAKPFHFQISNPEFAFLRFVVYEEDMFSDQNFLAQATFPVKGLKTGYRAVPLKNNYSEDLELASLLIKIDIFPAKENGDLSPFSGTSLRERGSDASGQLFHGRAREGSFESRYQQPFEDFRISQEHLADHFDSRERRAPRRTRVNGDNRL
# This is a selection; strong and weak results do not stand in their true shares. Calls of active or inactive are those of the source. No stated cut-off is given here; in the data, active means inhibition above about 9.5%; inactive means the rest.
# Target: 1-phosphatidylinositol 4,5-bisphosphate phosphodiesterase gamma-1 (Homo sapiens) (UniProt P19174)
# Test: human PLCG1 activity blockade – biochemical, fluorescence, counter-screen for PLC-beta3 inhibitor project (AID 743258)
# Settings: purified PLC-gamma1, fluorogenic substrate, at 12.3 µM, stronger effect = higher value
row,Structure (SMILES),inhibition
1,CCC(c1nnnn1C1CCCCC1)N1CCC(n2c(=O)[nH]c3ccccc32)CC1 (stereo unspecified),active: 10.3%
